A short description of the series: Determination of kinetic solubility (pH 7.4). Type of series: physicochemical. Conditions: 50 mM phosphate buffer pH 7.4.

With “2-((S)-4-(7-(8-chloro-7-fluoronaphthalen-1-yl)-8-fluoro-2-(((2R,7aS)-2-fluorotetrahydro-1H-pyrrolizin-7a(5H)-yl)methoxy)pyrido[4,3-d]pyrimidin-4-yl)-1-((E)-4-((3aR,6aS)-tetrahydro-1H-furo[3,4-c]pyrrol-5(3H)-yl)but-2-enoyl)piperazin-2-yl)acetonitrile [Example 84]”, the “Ksol, pH 7.4 (ug/mL)” value was 81.53 ug/mL.

Values taken from US20250129103A1, “METHODS FOR TREATMENT OF CANCER” (Frontier Medicines Corporation, priority 2022, published 2025).
